We go through 1 compound from PubChem BioAssay AID652088 (The Scripps Research Institute Molecular Screening Center, 2013).

Calls of active or inactive are those of the source.

One may read the half-life as how long it takes for the measured level to halve.

What all share (assay): PubChem AID 652088
Holding throughout (conditions): pooled hepatic microsomes, five species, LC-MS/MS half-life, active compounds read high

Data set [1] relates to dog.
In data set [2] the test system is human.
In data set [3] the test system is monkey.
Data set [4] concerns mouse.
In data set [5] the test system is rat.

As for `COC(=O)c1cc(Br)cnc1N1CCC(NC2CCCCC2)C(O)C1` (stereo not given), the half-life was over 120 min in data set [1]; over 120 min in data set [2]; inactive: 13 min in data set [3]; inactive: 5 min in data set [4]; inactive: 20 min in data set [5].
